# Measured values from patent US12648917B2 (University of Florida Research Foundation, Incorporated, priority 2017, dated 2026).
# System: glial fibrillary acidic protein (GFAP)
# Test: IHC staining for GFAP (neuroinflammation, reactive gliosis) in C9-BAC mice
# Type: in vivo, mouse
# Conditions: C9 metformin treated animals vs non-transgenic (NT) animals
compound,measurement,value
CN(C)C(=N)NC(=N)N [metformin],GFAP staining in C9 treated animals relative to NT animals,comparable to NT animals
